AlphaSeq binding of Ab-14 heavy chain variants to a spike HR2 peptide

Reference: Li et al. 2023, doi:10.1038/s41467-023-39022-2. File: FLAb, binding data.

Target: peptide PDVDLGDISGINAS, taken from heptad repeat 2 (HR2) of SARS-CoV-2 spike.

Ab-14 is the parent antibody, in scFv form: VH, then a (GGGGS)3 linker, then VL. The light chain is unchanged in all variants.
VH: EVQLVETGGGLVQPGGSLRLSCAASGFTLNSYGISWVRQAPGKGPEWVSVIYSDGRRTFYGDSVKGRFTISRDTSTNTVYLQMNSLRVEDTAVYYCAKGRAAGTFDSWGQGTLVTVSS
VL: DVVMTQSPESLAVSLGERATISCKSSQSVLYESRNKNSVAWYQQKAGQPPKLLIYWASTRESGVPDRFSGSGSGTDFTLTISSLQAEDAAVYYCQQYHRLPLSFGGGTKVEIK

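The parent was found by panning a naive human phage display library on the peptide. Designed CDR sequences, proposed from the first random library and measured here. Several design methods are mixed in this list. Affinity was read by AlphaSeq, a pooled yeast mating assay with surface-displayed partners. The frequency of each diploid, read from paired DNA barcodes, reflects how well the two displayed proteins bind. Scores were corrected for input abundance and mapped to Kd with protein pairs of known affinity run in the same pool. Mating was done six times.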

The whole VH of each variant is written out. The Kd shown is the geometric mean over detected replicates; a lower Kd is a better binder. An entry "not detected" has no value in the source: the pair was not observed among the diploids in any replicate. This suggests poor binding but is not conclusive. The parent sequence was in this pool as ten entries: three were never detected, three once, and four in most replicates, with averages from 2.2 nM to 240 nM. The authors' rule: three or more of the six replicates give a measured affinity, fewer mean a poor binder. The range of this assay differs from that of the first round, and the authors advise against merging the two. Background: pairings of all heavy chain designs with three empty control strains gave a value in 1% of cases (median 120 nM, 5th percentile 7.0 nM). Values in that range, when seen in few replicates, are hard to tell from nonspecific mating. For each scFv, signals with the empty controls are counted beside the result.

VH,Kd (apparent),seen in,empty controls
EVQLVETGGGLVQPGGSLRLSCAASGFTLNSYGISWVRQAPGKGPEWVSVIYSDGRRTAYGDKVKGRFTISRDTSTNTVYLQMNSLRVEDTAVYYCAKGEAAGTFDSWGQGTLVTVSS,6.8 nM,6/6,0/18
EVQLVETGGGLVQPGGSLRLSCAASGFGLNSYGISWVRQAPGKGPEWVSVIYSDGRRTFYMDSVKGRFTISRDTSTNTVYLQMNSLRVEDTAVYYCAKGREAGTSDSWGQGTLVTVSS,not detected,0/6,0/18
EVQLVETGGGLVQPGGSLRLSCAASGFTLNEYGISWVRQAPGKGPEWVSVIYADGRRTFYADSVKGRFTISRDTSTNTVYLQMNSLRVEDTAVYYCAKGRAAGTFDVWGQGTLVTVSS,110 pM,6/6,0/18
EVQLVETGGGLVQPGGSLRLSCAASGFDLNSHGISWVRQAPGKGPEWVSVIYSDGRRTFYGDSVKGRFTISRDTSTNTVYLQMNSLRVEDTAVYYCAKGRAAGTFDVWGQGTLVTVSS,11 nM,5/6,1/18
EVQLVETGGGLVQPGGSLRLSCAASGFELNDYGISWVRQAPGKGPEWVSVIYSDGRRTEYCDSVKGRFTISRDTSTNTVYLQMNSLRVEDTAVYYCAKGRAAGTFDSWGQGTLVTVSS,130 nM,3/6,1/18
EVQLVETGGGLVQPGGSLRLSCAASGFDLNEYGISWVRQAPGKGPEWVSVIYADGKRTFYADSVKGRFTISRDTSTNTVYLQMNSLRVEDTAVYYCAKGNAAGTFNVWGQGTLVTVSS,940 pM,6/6,0/18
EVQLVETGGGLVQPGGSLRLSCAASGFGLNEYGVSWVRQAPGKGPEWVSVIYADGVRASYADNVKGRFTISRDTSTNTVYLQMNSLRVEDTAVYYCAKGFNFGQDILWGQGTLVTVSS,not detected,0/6,0/18
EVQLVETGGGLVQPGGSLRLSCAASGFELLSYGISWVRQAPGKGPEWVSVIYADGRRTHYGDSVKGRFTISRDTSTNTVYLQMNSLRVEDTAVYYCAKGRAAGTFDSWGQGTLVTVSS,16 nM,6/6,0/18
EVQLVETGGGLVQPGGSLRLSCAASGNTLNSYGISWVRQAPGKGPEWVSVIYSDGRRTFYGDDVKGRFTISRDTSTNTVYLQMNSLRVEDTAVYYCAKGERYGTFDSWGQGTLVTVSS,not detected,0/6,0/18
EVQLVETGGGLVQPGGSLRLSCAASGFDLNEYGISWVRQAPGKGPEWVSVIYADGMRTQYIDSVKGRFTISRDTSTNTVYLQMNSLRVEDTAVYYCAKGNEAGTFDVWGQGTLVTVSS,440 pM,6/6,0/18
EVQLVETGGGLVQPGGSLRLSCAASGFHLNSYGISWVRQAPGKGPEWVSVIYSDGRRTFYADSVKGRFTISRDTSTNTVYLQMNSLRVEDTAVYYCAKGKNAGTFDSWGQGTLVTVSS,960 pM,5/6,0/18
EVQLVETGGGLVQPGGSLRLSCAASGFTLNSYGISWVRQAPGKGPEWVSVIYADGRRTFYGNSVKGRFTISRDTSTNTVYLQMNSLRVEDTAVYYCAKGRAAGTFDSWGQGTLVTVSS,7.3 nM,6/6,0/18
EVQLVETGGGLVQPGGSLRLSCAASGFSLNEYGISWVRQAPGKGPEWVSVIYSDGRRTFYCDSVKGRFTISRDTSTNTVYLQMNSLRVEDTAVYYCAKGQTAGTFDSWGQGTLVTVSS,2.0 nM,6/6,1/18
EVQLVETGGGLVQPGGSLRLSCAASGFTLNSYGISWVRQAPGKGPEWVSVIYSDGRRTFYADSVKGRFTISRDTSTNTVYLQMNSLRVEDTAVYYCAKGDAAGTFDSWGQGTLVTVSS,not detected,0/6,0/18
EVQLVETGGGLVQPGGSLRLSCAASGFDLNEYGISWVRQAPGKGPEWVSVIYADGQRTAYADSVKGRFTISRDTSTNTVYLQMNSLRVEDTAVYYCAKGEVAGTFDEWGQGTLVTVSS,510 pM,6/6,1/18
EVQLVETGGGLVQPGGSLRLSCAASGFTLNSYGISWVRQAPGKGPEWVSVIYSDGRRTFYTDSVKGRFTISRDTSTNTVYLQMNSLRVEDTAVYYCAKGAAAGTFLSWGQGTLVTVSS,not detected,0/6,0/18
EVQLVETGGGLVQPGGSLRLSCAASGFDLNEYGISWVRQAPGKGPEWVSVIYADGLRTFYTDSVKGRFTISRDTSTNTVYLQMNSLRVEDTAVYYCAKGELAGTFDSWGQGTLVTVSS,530 pM,6/6,0/18
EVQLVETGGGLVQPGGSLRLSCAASGFTLNKYGISWVRQAPGKGPEWVSVIYSDGRRTFYGDSVKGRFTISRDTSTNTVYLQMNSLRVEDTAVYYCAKGRWAGMFDSWGQGTLVTVSS,not detected,0/6,0/18
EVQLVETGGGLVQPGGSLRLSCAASGEDIDEYGISWVRQAPGKGPEWVSVIYADGRRTAYSQSVKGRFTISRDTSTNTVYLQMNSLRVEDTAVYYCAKGQNGGQIDVWGQGTLVTVSS,not detected,0/6,0/18
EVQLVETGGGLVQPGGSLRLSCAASGFDLNSYGISWVRQAPGKGPEWVSVIYSDGHRTFYGDSVKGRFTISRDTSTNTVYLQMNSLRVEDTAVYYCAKGREAGTFDSWGQGTLVTVSS,1.6 nM,5/6,0/18
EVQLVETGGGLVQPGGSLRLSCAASGFTLNEYGISWVRQAPGKGPEWVSVIYSDGRRTFYGDSVKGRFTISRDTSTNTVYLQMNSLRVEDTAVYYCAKGRAKGTFDSWGQGTLVTVSS,14 nM,6/6,0/18
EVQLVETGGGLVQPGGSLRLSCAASGFDLNQYGISWVRQAPGKGPEWVSVIYSDGRRTFYGDSVKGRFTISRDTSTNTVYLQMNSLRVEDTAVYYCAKGRTAGTFDSWGQGTLVTVSS,1.3 nM,6/6,0/18
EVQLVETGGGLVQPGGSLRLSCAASGFKLNSYGISWVRQAPGKGPEWVSVIYSDGRRTFYVDSVKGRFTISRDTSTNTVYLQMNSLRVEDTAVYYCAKGQLAGTFDSWGQGTLVTVSS,32 nM,2/6,1/18
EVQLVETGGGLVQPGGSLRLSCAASGFELNEYGISWVRQAPGKGPEWVSVIYSDGKRTFYGDSVKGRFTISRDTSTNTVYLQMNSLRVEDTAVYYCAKGRTAGTFDSWGQGTLVTVSS,1.9 nM,6/6,0/18

The opening 4 entries, copied out:

VH,Kd (apparent),seen in,empty controls
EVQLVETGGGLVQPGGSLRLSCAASGFTLNSYGISWVRQAPGKGPEWVSVIYSDGRRTAYGDKVKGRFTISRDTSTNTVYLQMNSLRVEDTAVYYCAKGEAAGTFDSWGQGTLVTVSS,6.8 nM,6/6,0/18
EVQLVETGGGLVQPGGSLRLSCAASGFGLNSYGISWVRQAPGKGPEWVSVIYSDGRRTFYMDSVKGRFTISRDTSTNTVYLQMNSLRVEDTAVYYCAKGREAGTSDSWGQGTLVTVSS,not detected,0/6,0/18
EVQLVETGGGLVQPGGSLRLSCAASGFTLNEYGISWVRQAPGKGPEWVSVIYADGRRTFYADSVKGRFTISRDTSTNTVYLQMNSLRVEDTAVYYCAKGRAAGTFDVWGQGTLVTVSS,110 pM,6/6,0/18
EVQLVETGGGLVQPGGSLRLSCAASGFDLNSHGISWVRQAPGKGPEWVSVIYSDGRRTFYGDSVKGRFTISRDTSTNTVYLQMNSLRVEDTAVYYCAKGRAAGTFDVWGQGTLVTVSS,11 nM,5/6,1/18